From ChEMBL document CHEMBL2440083 (J Med Chem, 2013)

Tests used:
[1] = species on record: Rattus norvegicus; assay: Analgesic effect in rat by hot plate assay relative to morphine
[2] = species on record: Mus musculus; assay: Analgesic effect in mouse by hot plate assay relative to morphine

`COc1ccsc1CNCC[C@@]1(c2ccccn2)CCOC2(CCCC2)C1` [OLICERIDINE] was tested, and the fold change (FC) [1] was 3 and the fold change (FC) [2] was 3.
